Results on 1 molecule are retold here after patent publication US8729088B2, “Toll-like receptor modulators and treatment of diseases” (The Regents of the University of California, priority 2009, dated 2014).

Assay [1] deals with T1, TLR7 (Homo sapiens, UniProt Q9NYK1).
T1 sequence (Q9NYK1 27-1049): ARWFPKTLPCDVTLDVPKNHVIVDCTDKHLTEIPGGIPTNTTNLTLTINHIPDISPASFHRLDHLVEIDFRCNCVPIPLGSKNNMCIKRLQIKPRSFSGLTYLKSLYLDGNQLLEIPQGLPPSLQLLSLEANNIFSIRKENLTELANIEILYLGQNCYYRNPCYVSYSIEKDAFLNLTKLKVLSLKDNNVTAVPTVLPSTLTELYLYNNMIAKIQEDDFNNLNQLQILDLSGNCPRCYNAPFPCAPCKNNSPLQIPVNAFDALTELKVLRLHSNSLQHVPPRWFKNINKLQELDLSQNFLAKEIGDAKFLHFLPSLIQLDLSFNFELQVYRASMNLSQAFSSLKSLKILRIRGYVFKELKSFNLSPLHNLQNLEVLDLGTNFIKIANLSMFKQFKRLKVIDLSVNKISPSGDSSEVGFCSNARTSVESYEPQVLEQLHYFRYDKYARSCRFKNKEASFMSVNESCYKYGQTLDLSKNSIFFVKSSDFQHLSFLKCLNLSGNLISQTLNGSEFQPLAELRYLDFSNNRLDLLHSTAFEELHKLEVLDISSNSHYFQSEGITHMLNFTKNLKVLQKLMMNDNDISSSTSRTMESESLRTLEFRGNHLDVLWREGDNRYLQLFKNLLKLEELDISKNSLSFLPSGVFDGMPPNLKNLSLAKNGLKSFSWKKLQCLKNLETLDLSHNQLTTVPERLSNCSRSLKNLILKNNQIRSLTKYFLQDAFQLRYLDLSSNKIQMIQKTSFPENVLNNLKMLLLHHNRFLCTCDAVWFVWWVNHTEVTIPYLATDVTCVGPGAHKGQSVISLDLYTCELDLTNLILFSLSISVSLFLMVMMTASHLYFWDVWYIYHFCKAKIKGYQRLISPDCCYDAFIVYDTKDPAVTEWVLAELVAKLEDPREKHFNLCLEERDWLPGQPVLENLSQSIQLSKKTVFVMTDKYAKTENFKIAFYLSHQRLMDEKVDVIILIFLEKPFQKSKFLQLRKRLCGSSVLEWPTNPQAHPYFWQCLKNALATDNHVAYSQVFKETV
The settings on record: literature reference (8); cited from earlier work.

The target in assay [2] is T2, TLR7 (Mus musculus, UniProt P58681).
T2 sequence (P58681 27-1050): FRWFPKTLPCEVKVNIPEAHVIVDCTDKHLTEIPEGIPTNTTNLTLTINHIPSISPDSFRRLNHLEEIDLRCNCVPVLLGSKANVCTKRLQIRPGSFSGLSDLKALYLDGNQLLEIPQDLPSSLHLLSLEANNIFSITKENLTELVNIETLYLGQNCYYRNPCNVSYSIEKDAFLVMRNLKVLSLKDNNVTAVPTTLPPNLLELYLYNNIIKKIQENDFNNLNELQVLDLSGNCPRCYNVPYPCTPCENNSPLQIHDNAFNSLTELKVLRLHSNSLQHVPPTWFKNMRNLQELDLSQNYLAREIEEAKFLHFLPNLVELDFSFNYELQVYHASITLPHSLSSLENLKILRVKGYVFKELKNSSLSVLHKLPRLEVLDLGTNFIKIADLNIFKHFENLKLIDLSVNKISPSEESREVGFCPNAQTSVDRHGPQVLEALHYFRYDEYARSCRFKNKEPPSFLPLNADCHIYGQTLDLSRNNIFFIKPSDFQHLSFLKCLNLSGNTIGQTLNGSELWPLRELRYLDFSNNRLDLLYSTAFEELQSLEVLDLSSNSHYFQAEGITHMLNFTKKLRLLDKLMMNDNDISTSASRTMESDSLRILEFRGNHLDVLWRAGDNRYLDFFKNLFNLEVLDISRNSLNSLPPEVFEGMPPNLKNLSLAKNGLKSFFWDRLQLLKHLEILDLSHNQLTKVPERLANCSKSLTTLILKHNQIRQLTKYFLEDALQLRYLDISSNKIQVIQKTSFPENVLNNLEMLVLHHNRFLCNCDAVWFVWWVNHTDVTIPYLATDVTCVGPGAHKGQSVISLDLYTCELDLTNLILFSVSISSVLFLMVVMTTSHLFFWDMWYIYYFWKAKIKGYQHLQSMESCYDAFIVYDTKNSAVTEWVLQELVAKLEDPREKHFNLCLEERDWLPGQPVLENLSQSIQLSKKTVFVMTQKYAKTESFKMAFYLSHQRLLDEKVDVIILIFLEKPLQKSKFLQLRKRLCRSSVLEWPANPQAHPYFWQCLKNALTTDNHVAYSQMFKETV
Description: Cytokine induction in BMDM from wild type and TLR7 deficient mice. The assay is classed as cell-based. Details: endogenous in cells; host or cells: primary BMDM from C57BL/6 mice. The protocol: In vitro measurements of cytokine induction were performed using the mouse leukemic monocyte macrophage cell line, RAW264.7. […] BMDM were prepared from C57BL/6 and TLR7 deficient mice as described in Wu, C. C et al., (2007) “Immunotherapeutic activity of a conjugate of a Toll-like receptor 7 ligand”, Proc Natl Acad Sci USA 104, 3990-5.
In general, RAW264.7 cells or BMDM were incubated with various concentrations of conjugates for 18 hours at 37° C., 5% CO2 and culture supernatants were collected. The levels of cytokines (IL-6, IL-12 or TNF-α in the supernatants were determined by ELISA (BD Biosciences Pharmingen, La Jolla, Calif.) (Cho, H. J et al., “Immunostimulatory DNA-based vaccines induce cytotoxic lymphocyte activity by a T-helper cell-independent mechanism” [see comments], Nat Biotechnol 18, 509-14 (2000)), and the results presented in FIG. 2A-D. Data are mean±SEM of triplicates and are representative of three independent experiments. Minimum detection levels of these cytokines were 15 pg/mL.

Assay [3] concerns the target T1, TLR7. Nature of the assay: Cytokine induction in human PBMC, LUMINEX bead assay. The following applies: 18 hours. More on the design: endogenous in cells; host or cells: human PBMC from buffy coats (The San Diego Blood Bank). The assay is classed as cell-based. The protocol:
Human blood peripheral mononuclear cells (PBMC) were isolated from human buffy coats, purchased from The San Diego Blood Bank (San Diego, Calif.), as described in Hayashi, T et al., “Enhancement of innate immunity against Mycobacterium avium infection by immunostimulatory DNA is mediated by indoleamine 2,3-dioxygenase”, Infect Immun 69:6156-64, (2001). PBMC (1×10^6/mL) were incubated with various concentrations of TLR7 conjugates for 18 hours at 37° C., 5% CO2 and culture supernatants were collected. The levels of cytokines (IL-6, TNF-α, or IFNα1) in the supernatants were determined by LUMINEX bead assays (Invitrogen, Carlsbad, Calif.), and the results presented in FIG. 3A-B. Data are mean±SEM of triplicates and are representative of three independent experiments. The minimum detection levels of IL-6, TNF-α, and IFNα1 were 6 pg/mL, 10 pg/mL and 15 pg/mL, respectively.
To further investigate the immunological activities in human cells, human PBMC from three donors were treated with TLR7 conjugates and the levels of IL-6 and IFNa1 were determined by LUMINEX assay (FIG. 3A-B). Human serum albumin (HSA) conjugated to TLR7 (4b) was used instead of MSA-conjugates (4a) in this experiment. The order of TLR7 conjugate potency was similar to the order observed in murine macrophages ((4b)>(6)>(9)>/=SM>(8)) (FIG. 3A).

Consider `COCCOc1nc(N)c2nc(O)n(Cc3ccccc3)c2n1` [SM, 9-benzyl-8-hydroxy-2-(2-methoxyethoxy) adenine, reference compound], for which the TLR7 agonist activity entry in assay [1] is “potent and specific TLR7 agonist”. The “agonist activity (IL-12, IL-6)” value in assay [2] is on record as “active”. Moreover, the “order of TLR7 conjugate potency” value in assay [3] is reported as “(4b)>(6)>(9)>/=SM>(8)”.
